Values of other authors as cited in US20110287437A1, “ASSAYS TO PREDICT CARDIOTOXICITY” (priority 2010, published 2011).

Conditions: treatment of patients; prescribing information

trastuzumab: the monoclonal antibody that targets the ERBB2 receptor
Cardiotoxicity / adverse cardiac effects reported: Cardiotoxicity of a targeted agent was first reported
